According to PubChem BioAssay (NCI):
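Where inhibition never reached the appropriate level, the endpoint shown equals the highest concentration tested. Otherwise, values were interpolated linearly from a five-concentration, 48-hour dose response in 96-well plates. At the GI50, growth is halved. TGI: concentration producing complete growth inhibition.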

What was measured:
Assay in all cases: NCI anticancer screen, dose series, 48 h
[1] = tested on: XF 498 CNS
[2] = tested on: RPMI-8226 leukemia
[3] = tested on: SF-268 CNS
[4] = tested on: RXF 393 renal
[5] = tested on: SF-295 CNS
[6] = tested on: A549 NSCLC
[7] = tested on: HL-60(TB) leukemia
[8] = tested on: SF-539 CNS
[9] = tested on: KM20L2 colon
[10] = tested on: SNB-75 CNS
[11] = tested on: MALME-3M melanoma
[12] = tested on: DMS 114 small cell lung
[13] = tested on: KM12 colon
[14] = tested on: LXFL 529 NSCLC
[15] = tested on: HOP-62 NSCLC
[16] = tested on: UACC-257 melanoma
[17] = tested on: SNB-19 CNS
[18] = tested on: M14 melanoma
[19] = tested on: RXF-631 renal
[20] = tested on: CAKI-1 renal
[21] = tested on: HCT-15 colon
[22] = tested on: LOX IMVI melanoma
[23] = tested on: NCI-H322M lung
[24] = tested on: SK-MEL-2 melanoma
[25] = tested on: CCRF-CEM leukemia
[26] = tested on: SNB-78 CNS
[27] = tested on: 786-0 renal
[28] = tested on: COLO 205 colon
[29] = tested on: TK-10 renal
[30] = tested on: DLD-1 colon
[31] = tested on: UO-31 renal
[32] = tested on: HCC-2998 colon
[33] = tested on: NCI-H23 lung
[34] = tested on: UACC-62 melanoma
[35] = tested on: EKVX NSCLC
[36] = tested on: OVCAR-8 ovarian
[37] = tested on: DMS 273 small cell lung
[38] = tested on: SN12C renal
[39] = tested on: NCI-H522 lung
[40] = tested on: NCI-H226 lung
[41] = tested on: A498 renal
[42] = tested on: SK-MEL-5 melanoma
[43] = tested on: IGROV1 ovarian
[44] = tested on: SK-OV-3 ovarian
[45] = tested on: NCI-H460 lung
[46] = tested on: HT29 colon
[47] = tested on: OVCAR-3 ovarian
[48] = tested on: SW-620 colon
[49] = tested on: M19-MEL melanoma
[50] = tested on: U251 CNS
[51] = tested on: MOLT-4 leukemia
[52] = tested on: K-562 leukemia
[53] = tested on: SK-MEL-28 melanoma
[54] = tested on: HOP-92 NSCLC

SMILES: Cc1[nH]c2ccc([N+](=O)[O-])cc2c1CC(CC[N+](=O)[O-])[N+](=O)[O-] (stereo not drawn)
- GI50 [1]: > 100 µM
- TGI [1]: > 100 µM
- GI50 [2]: 29.8 µM
- TGI [2]: > 100 µM
- GI50 [3]: > 100 µM
- TGI [3]: > 100 µM
- GI50 [4]: 38.4 µM
- TGI [4]: > 100 µM
- GI50 [5]: > 100 µM
- TGI [5]: > 100 µM
- GI50 [6]: > 100 µM
- TGI [6]: > 100 µM
- GI50 [7]: 54.9 µM
- TGI [7]: > 100 µM
- GI50 [8]: > 100 µM
- TGI [8]: > 100 µM
- GI50 [9]: > 100 µM
- TGI [9]: > 100 µM
- GI50 [10]: 61.3 µM
- TGI [10]: > 100 µM
- GI50 [11]: > 100 µM
- TGI [11]: > 100 µM
- GI50 [12]: 55 µM
- TGI [12]: > 100 µM
- GI50 [13]: > 100 µM
- TGI [13]: > 100 µM
- GI50 [14]: 44.2 µM
- TGI [14]: > 100 µM
- GI50 [15]: 50.4 µM
- TGI [15]: > 100 µM
- GI50 [16]: > 100 µM
- TGI [16]: > 100 µM
- GI50 [17]: > 100 µM
- TGI [17]: > 100 µM
- GI50 [18]: > 100 µM
- TGI [18]: > 100 µM
- GI50 [19]: > 100 µM
- TGI [19]: > 100 µM
- GI50 [20]: > 100 µM
- TGI [20]: > 100 µM
- GI50 [21]: > 100 µM
- TGI [21]: > 100 µM
- GI50 [22]: 88.4 µM
- TGI [22]: > 100 µM
- GI50 [23]: > 100 µM
- TGI [23]: > 100 µM
- GI50 [24]: > 100 µM
- TGI [24]: > 100 µM
- GI50 [25]: 32.4 µM
- TGI [25]: > 100 µM
- GI50 [26]: 36 µM
- TGI [26]: > 100 µM
- GI50 [27]: > 100 µM
- TGI [27]: > 100 µM
- GI50 [28]: > 100 µM
- TGI [28]: > 100 µM
- GI50 [29]: > 100 µM
- TGI [29]: > 100 µM
- GI50 [30]: 100 µM
- TGI [30]: > 100 µM
- GI50 [31]: 53 µM
- TGI [31]: > 100 µM
- GI50 [32]: > 100 µM
- TGI [32]: > 100 µM
- GI50 [33]: > 100 µM
- TGI [33]: > 100 µM
- GI50 [34]: 61.3 µM
- TGI [34]: > 100 µM
- GI50 [35]: 75.8 µM
- TGI [35]: > 100 µM
- GI50 [36]: 63.1 µM
- TGI [36]: > 100 µM
- GI50 [37]: > 100 µM
- TGI [37]: > 100 µM
- GI50 [38]: > 100 µM
- TGI [38]: > 100 µM
- GI50 [39]: 43.1 µM
- TGI [39]: > 100 µM
- GI50 [40]: 37.2 µM
- TGI [40]: > 100 µM
- GI50 [41]: > 100 µM
- TGI [41]: > 100 µM
- GI50 [42]: 91.3 µM
- TGI [42]: > 100 µM
- GI50 [43]: > 100 µM
- TGI [43]: > 100 µM
- GI50 [44]: > 100 µM
- TGI [44]: > 100 µM
- GI50 [45]: > 100 µM
- TGI [45]: > 100 µM
- GI50 [46]: > 100 µM
- TGI [46]: > 100 µM
- GI50 [47]: 71.5 µM
- TGI [47]: > 100 µM
- GI50 [48]: > 100 µM
- TGI [48]: > 100 µM
- GI50 [49]: > 100 µM
- TGI [49]: > 100 µM
- GI50 [50]: > 100 µM
- TGI [50]: > 100 µM
- GI50 [51]: 46.8 µM
- TGI [51]: > 100 µM
- GI50 [52]: 58.9 µM
- TGI [52]: > 100 µM
- GI50 [53]: > 100 µM
- TGI [53]: > 100 µM
- GI50 [54]: 15.7 µM
- TGI [54]: > 100 µM
